Test: MALDI mass spectrometry imaging of mouse kidney sections after oral co-administration (Example 1)

SMILES: Cc1cc2c(s1)Nc1ccccc1N=C2N1CCN(C)CC1 [Olanzapine]
- F2 (%) (mouse kidney target tissue T1, positive control 100% and negative control 0% by definition, listed as olanzapine): 27%
- Mean normalized intensity per tissue T2 (mouse kidney, non target tissue T2 (renal cortex), oral 8 mg/kg, MALDI imaging): 0.117
- Mean normalized intensity per tissue T1 (mouse kidney, target tissue T1 (medulla), oral 8 mg/kg, MALDI imaging): 0.161

— patent US9645138B2, “Method to evaluate the tissue targeting of a molecule of interest” (IMABIOTECH, priority 2013, dated 2017)
